In assay [1] the target is Nucleoli Translocation, AR (gene 367) (UniProt P10275). Description: UPITT_HCI_U2OS_AR_TIF2_Nucleoli_Agonist: University of Pittsburgh U2OS Androgen Receptor-Transcriptional Intermediary Factor 2 (AR-TIF2) Agonism High Content Imaging Assay for Nucleoli Translocation (AID 2283998; active means hit-call score of the fitted dose curve at least 0.9, where 1 is the maximum). The method, boiled down:
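Red-tagged human androgen receptor co-expressed with GFP-tagged TIF2 serves as the binding reporter. Primary testing used 20 uM final (0.2% DMSO); follow-up dose response covered 0.195 to 50 uM final (0.5% DMSO).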

Protein sequences, listed by entry. Tags and fused reporters are not part of them. Lines headed by an entry give the natural chain unless they say otherwise; changes in a name come on top.
UniProt P10275: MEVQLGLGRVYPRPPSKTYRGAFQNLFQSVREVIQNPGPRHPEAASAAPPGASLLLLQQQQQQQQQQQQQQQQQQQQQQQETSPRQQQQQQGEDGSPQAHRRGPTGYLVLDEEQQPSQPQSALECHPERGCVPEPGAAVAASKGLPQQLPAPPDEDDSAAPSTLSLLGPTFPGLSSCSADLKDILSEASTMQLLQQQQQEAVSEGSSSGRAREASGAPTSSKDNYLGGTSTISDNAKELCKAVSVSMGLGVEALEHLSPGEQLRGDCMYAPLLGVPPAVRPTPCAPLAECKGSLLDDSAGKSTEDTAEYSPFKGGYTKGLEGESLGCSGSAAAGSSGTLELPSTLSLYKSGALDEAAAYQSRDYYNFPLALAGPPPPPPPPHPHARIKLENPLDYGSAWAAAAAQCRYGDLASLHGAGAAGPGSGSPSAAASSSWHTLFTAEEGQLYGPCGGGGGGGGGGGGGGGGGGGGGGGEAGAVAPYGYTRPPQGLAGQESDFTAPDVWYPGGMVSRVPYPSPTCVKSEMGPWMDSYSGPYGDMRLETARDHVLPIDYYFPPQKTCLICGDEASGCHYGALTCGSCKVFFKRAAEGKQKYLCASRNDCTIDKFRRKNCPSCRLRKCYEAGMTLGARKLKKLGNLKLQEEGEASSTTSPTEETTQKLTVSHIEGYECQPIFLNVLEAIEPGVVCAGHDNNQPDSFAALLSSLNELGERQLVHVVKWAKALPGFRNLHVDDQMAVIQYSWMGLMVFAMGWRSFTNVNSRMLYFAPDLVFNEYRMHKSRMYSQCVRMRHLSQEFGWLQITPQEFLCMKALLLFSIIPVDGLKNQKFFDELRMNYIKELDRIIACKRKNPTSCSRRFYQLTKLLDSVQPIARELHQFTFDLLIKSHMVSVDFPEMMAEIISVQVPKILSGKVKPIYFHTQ

Assay [2] can be described thus: CCTE_Simmons_MITO_basal_resp_rate: CCTE's HepG2 Seahorse XF Respirometric Screening Assay at Basal Respiratory State, Simmons Lab (AID 2284001). The settings on record: actives raise or lower the signal. The method, boiled down: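 HepG2 respirometry; 7-pt titration 125 nM–100 uM final; kinetic OCR at 6 min intervals for 72 min; n=3 biological, technical singles; DMSO baseline, gain or loss fit; fenpyroximate (decrease) and 2,4-DNP (increase) controls.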

Assay [3] can be described thus: CCTE_Simmons_MITO_max_resp_rate: CCTE's HepG2 Seahorse XF Respirometric Screening Assay at Maximal Respiratory State [uncoupled], Simmons Lab (AID 2284002). As to conditions: actives raise or lower the signal. The method, boiled down: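 Maximal respiration in HepG2 cells is recorded as OCR by Seahorse XF following FCCP injection. Compounds span 125 nM–100 uM final; activity is called in either direction against DMSO.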

Assay [4] can be described thus: CCTE_Simmons_MITO_inhib_resp_rate: CCTE's HepG2 Seahorse XF Respirometric Screening Assay at Inhibited Respiratory State [full ETC block], Simmons Lab (AID 2284006). The settings on record: actives raise or lower the signal. In short, it runs like this: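 HepG2 cells on Seahorse XF96; oxygen consumption measured after test compound, then FCCP, then rotenone/antimycin A injections over 72 min. Test chemicals at 7 concentrations, 125 nM–100 uM final. OCR fitted bidirectionally versus DMSO.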

Assay [5] is described as follows: CCTE_Simmons_MITO_viability: CellTiter-Glo Viability Assessment for CCTE's HepG2 Seahorse XF Respirometric Screening Assay [post-hoc], Simmons Lab (AID 2284007; active means hit-call score of the fitted dose curve at least 0.9, where 1 is the maximum;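 further: cells exposed to chemical for 90 min before the ATP read; actives lower ATP signal relative to DMSO baseline meaning reduced viability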). In short, it runs like this: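 HepG2 cells from the Seahorse XF respirometry run were exposed 90 min to a 7-point series, 125 nM–100 uM final, DMSO vehicle; ATP content then read by luciferase luminescence. Three biological replicates, technical singles; loss of signal fitted versus DMSO.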

The entries are a selection whose mix differs from that of the whole data set. Inconclusive results are not listed. The source made the active and inactive calls. How the source made its calls, unless noted: active means hit-call score of the fitted dose curve at least 0.9, where 1 is the maximum; inactive means score below 0.9.

For `O=C1C2CC=CCC2C(=O)N1SC(Cl)(Cl)C(Cl)Cl` (stereo not drawn), the concentration at half-maximal activity (AC50) in assay [1] was active: 65.6 µM.

Turning to `Cc1cc([N+](=O)[O-])cc([N+](=O)[O-])c1O`, the AC50 in assay [2] is active: 1.9 µM; in assay [3] it was active: 86.7 µM; in assay [5] it was active: 3.02 µM. The compound was classed as inactive in assay [4].

`CC(C)OP(=S)(OC(C)C)SCCNS(=O)(=O)c1ccccc1`: the call in assay [2], in assay [3] and in assay [4] was inactive.

The record behind these values is PubChem BioAssay (EPA / NIEHS).
